Results from US10149839B2, “Chemical compounds” (AstraZeneca AB, priority 2016, dated 2018).

Chains of the proteins cited; added tags and fusions are not shown.
UniProt P03372, whole entry: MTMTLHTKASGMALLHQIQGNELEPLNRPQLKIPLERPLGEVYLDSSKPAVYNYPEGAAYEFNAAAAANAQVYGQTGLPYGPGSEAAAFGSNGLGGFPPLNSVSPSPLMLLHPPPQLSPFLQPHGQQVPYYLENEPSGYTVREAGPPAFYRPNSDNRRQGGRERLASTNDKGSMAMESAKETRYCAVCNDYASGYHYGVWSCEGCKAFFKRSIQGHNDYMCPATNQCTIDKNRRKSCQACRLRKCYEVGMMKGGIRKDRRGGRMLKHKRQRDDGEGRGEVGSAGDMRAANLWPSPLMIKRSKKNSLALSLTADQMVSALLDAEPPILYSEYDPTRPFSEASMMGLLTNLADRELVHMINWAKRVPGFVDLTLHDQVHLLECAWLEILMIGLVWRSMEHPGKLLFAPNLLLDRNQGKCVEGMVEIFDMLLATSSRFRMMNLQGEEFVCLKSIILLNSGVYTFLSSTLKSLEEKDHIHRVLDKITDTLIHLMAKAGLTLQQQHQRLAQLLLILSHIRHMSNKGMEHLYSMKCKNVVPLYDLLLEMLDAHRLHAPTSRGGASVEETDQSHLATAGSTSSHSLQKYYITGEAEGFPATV

What was measured:
Format in all cases: cell-based
[1] = target: T1, Estrogen Receptor (ERα) in MCF-7 cells (Homo sapiens (Human), UniProt P03372); experiment: MCF-7 ER down-regulation assay (immuno-fluorescence); settings: for pIC50: 18-22 hours incubation; for % downregulation: shown in brackets where not >90%
[2] = target: T1, Estrogen Receptor (ERα) in MCF-7 cells; experiment: Western blotting assay, MCF-7 cells; settings: compound 100 nM, 48 h, normalised to 100 nM fulvestrant (100%)
[3] = target: estrogen receptor (ERα) in CAMA-1 cells (Homo sapiens (Human), UniProt P03372); experiment: Western blotting assay, CAMA-1 cells; settings: compound 100 nM, 48 h, normalised to 100 nM fulvestrant (100%)

Row | SMILES | pIC50 [1] | % downregulation [1] | MCF7 Western % ER deg vs Fv [2] [%] | CAMA1 Western % ER deg vs Fv [3] [%]
1 | COc1cc(OCCNCCCF)ccc1[C@@H]1c2[nH]c3ccccc3c2C[C@@H](C)N1CC1(F)COC1 [Example 8, 3-fluoro-N-(2-(4-((1R,3R)-2-((3-fluorooxetan-3-yl)methyl)-3-methyl-2,3,4,9-tetrahydro-1H-pyrido[3,4-b]indol-1-yl)-3-methoxyphenoxy)ethyl)propan-1-amine] | 9.80 |  |  | 
2 | C[C@@H]1Cc2c([nH]c3ccccc23)[C@@H](c2ccc(OCCNCCCF)cc2)N1CC1(F)CC1 [Example 23, 3-fluoro-N-(2-(4-((1R,3R)-2-((1-fluorocyclopropyl)methyl)-3-methyl-2,3,4,9-tetrahydro-1H-pyrido[3,4-b]indol-1-yl)phenoxy)ethyl)propan-1-amine] |  | (89%) |  | 
3 | COc1cc(OCCNCCCF)ccc1[C@@H]1c2[nH]c3ccccc3c2C[C@@H](C)N1CC(F)F [Example 43, N-(2-(4-((1R,3R)-2-(2,2-Difluoroethyl)-3-methyl-2,3,4,9-tetrahydro-1H-pyrido[3,4-b]indol-1-yl)-3-methoxyphenoxy)ethyl)-3-fluoropropan-1-amine] |  |  | 88 | 

Now from value to compound:

Row | pIC50 [1] | % downregulation [1] | MCF7 Western % ER deg vs Fv [2] [%] | CAMA1 Western % ER deg vs Fv [3] [%] | SMILES
4 | 10.06 |  | 86 | 58 | COc1cc(OCCNCCCF)ccc1[C@@H]1c2[nH]c3ccccc3c2C[C@@H](C)N1CC(F)(F)CO [Example 58, 2,2-difluoro-3-((1R,3R)-1-(4-(2-((3-fluoropropyl)amino)ethoxy)-2-methoxyphenyl)-3-methyl-1,3,4,9-tetrahydro-2H-pyrido[3,4-b]indol-2-yl)propan-1-ol]
5 | 9.20 | (87%) |  |  | COc1cc(NCCNCCCF)ncc1[C@@H]1c2[nH]c3ccccc3c2C[C@@H](C)N1CC(F)(F)CO [Example 65, 2,2-difluoro-3-((1R,3R)-1-(6-((2-((3-fluoropropyl)amino)ethyl)amino)-4-methoxypyridin-3-yl)-3-methyl-1,3,4,9-tetrahydro-2H-pyrido[3,4-b]indol-2-yl)propan-1-ol]

pIC50: −log10 of the molar value.
